Legend:
[1] = method code SF-TN, from DOI: 10.2116/analsci.13.897; details: pH 2.0
[2] = pH 7.4
[3] = not given; remark: listed apart in the source
[4] = not given; remark: listed apart in the source
[5] = method code SF-HPLC, from DOI: 10.1021/js970291i, PMID: 9523983; details: pH 7.4
[6] = not given; remark: listed apart in the source
[7] = method code SF-AS, from DOI: 10.1248/cpb.17.2558; details: pH 5.5
[8] = method code SF-HPLC, from DOI: 10.1248/cpb.32.1929; details: pH 7.2
[9] = not given; remark: listed apart in the source
[10] = not given; remark: listed apart in the source
[11] = method code SF-HPLC, from DOI: 10.1248/bpb.16.154, PMID: 8364451
[12] = method code SF-HPLC, from DOI: 10.1016/j.nucmedbio.2010.03.011, PMID: 20610161; details: pH 7.4
[13] = method code SF-GLC,RC, from DOI: 10.1016/0048-3575(73)90050-3
[14] = not given; remark: listed apart in the source
[15] = not given; remark: listed apart in the source
[16] = not given; remark: listed apart in the source
[17] = method code SF-GLC, from DOI: 10.1016/0378-4274(82)90116-3, PMID: 7090003
[18] = method code SF-AS, from DOI: 10.1139/y89-042, PMID: 2547502
[19] = not given; remark: listed apart in the source
[20] = not given; remark: listed apart in the source
[21] = not given; remark: listed apart in the source
[22] = not given; remark: listed apart in the source
[23] = method code SF-RC, from DOI: 10.1182/blood.v76.11.2389.bloodjournal76112389, PMID: 2257308; details: pH 7.4
[24] = pH 7.3
[25] = method code SF-RC, from DOI: 10.1023/a:1015913817221, PMID: 2798313; details: pH 7.4
[26] = not given; remark: listed apart in the source
[27] = pH 5.6
[28] = method code SF-HPLC, from DOI: 10.1021/jm00109a018, PMID: 2033591; details: pH 7.0
[29] = not given; remark: listed apart in the source
[30] = method code SF-HPLC, from DOI: 10.1023/a:1015823315983, PMID: 1475237
[31] = not given; remark: listed apart in the source
[32] = not given; remark: listed apart in the source
[33] = not given; remark: listed apart in the source
[34] = method code SF-AS, from DOI: 10.1002/qsar.19830020405
[35] = method code SF-TN, from DOI: 10.1007/bf00632830
[36] = pH 4.0

Q: Which logD [1] does the source give for `C/C=C/C(=O)O` here?
A: 0.71

Q: With `Cc1cc2nc3c(=O)[nH]c(=O)nc-3n(C[C@H](O)[C@H](O)[C@H](O)CO)c2cc1C` as the compound, how does the logD read?
A: -1.1

Q: With `NS(=O)(=O)c1cc2c(s1)S(=O)(=O)CCC2=O` as the compound, how does the logD [2] read?
A: -0.04

Q: With `C=CCc1ccc(O)c(OC)c1` as the compound, how does the logP [3] read?
A: 2.49

Q: Which logP [4] does the source give for `O=C(CCCN1CC=C(n2c(=O)[nH]c3ccccc32)CC1)c1ccc(F)cc1` here?
A: 3.5

Q: With `OCC1CCC(n2cnc3c(O)ncnc32)O1` (configuration not stated) as the compound, how does the logD [5] read?
A: -0.54

Q: For `COc1cc(Br)cc(C(=O)NC2CCN(Cc3ccc(F)cc3)CC2)c1OC`, which logP [6] is on record?
A: 3.82

Q: For `CC(=O)/N=c1\sc(S(N)(=O)=O)nn1C`, which logD [7] is on record?
A: 0.13

Q: With `O=c1cc[nH]c(=O)[nH]1` as the compound, how does the logD [8] read?
A: -1

Q: Which logP [6] does the source give for `COc1cc(Br)cc(C(=O)NC2CC3CCCC(C2)N3Cc2ccc(F)cc2)c1OC` (configuration not stated) here?
A: 3.59

Q: With `CC1=C(CC(=O)O)c2cc(F)ccc2/C1=C\c1ccc(S(C)=O)cc1` (configuration not stated) as the compound, how does the logP [9] read?
A: 3.29

Q: Which logP [10] does the source give for `OCCOCCN1CCN(C(c2ccccc2)c2ccc(Cl)cc2)CC1` (configuration not stated) here?
A: 3.05

Q: With `CC(=O)Oc1ccccc1C(=O)O` as the compound, how does the logP [11] read?
A: 1.28

Q: For `O=[N+]([O-])c1nccn1CC(O)CF` (configuration not stated), which logD [12] is on record?
A: -0.33

Q: With `CCCCCCN` as the compound, how does the logP [13] read?
A: 1.98

Q: For `CCCCC(CC)C(=O)O` (configuration not stated), which logP [14] is on record?
A: 2.64

Q: For `Cc1nc(N)nc(N)c1-c1ccc(Cl)c(Cl)c1`, which logP [15] is on record?
A: 2.8

Q: Which logP [16] does the source give for `O=[N+]([O-])c1ccc(CO)cc1` here?
A: 1.31

Q: With `C=CC(=O)OCC(C)O` (configuration not stated) as the compound, how does the logP [17] read?
A: 0.35

Q: For `CCCC(=O)Nc1ncnc2c1ncn2[C@@H]1O[C@@H]2COP(=O)(O)O[C@H]2[C@H]1OC(=O)CCC`, which logD [18] is on record?
A: -1.75

Q: With `CC(C)(C)c1ccc(C(O)CCCN2CCC(C(O)(c3ccccc3)c3ccccc3)CC2)cc1` (configuration not stated) as the compound, how does the logP [19] read?
A: 5.42

Q: For `CC(CN1c2ccccc2Sc2ccccc21)N(C)C` (configuration not stated), which logP [20] is on record?
A: 4.3

Q: For `COc1ccc(-c2oc3c(CC=C(C)C)c(O[C@@H]4O[C@H](CO)[C@@H](O)[C@H](O)[C@H]4O)cc(O)c3c(=O)c2O[C@@H]2O[C@@H](C)[C@H](O)[C@@H](O)[C@H]2O[C@@H]2O[C@@H](C)[C@H](O)[C@@H](O)[C@H]2O)cc1`, which logP [21] is on record?
A: 0.24

Q: Which logP [22] does the source give for `CS(C)=O` here?
A: -0.85

Q: Which logD [5] does the source give for `Nc1ccn([C@H]2CC[C@@H](CO)O2)c(=O)n1` here?
A: -1.1

Q: For `Cc1c(O)c(=O)ccn1C`, which logD [23] is on record?
A: -0.68

Q: For `Cc1occc(=O)c1O`, which logD [24] is on record?
A: 0.09

Q: For `NS(=O)(=O)c1cc2c(s1)C(=O)CCS2(=O)=O`, which logD [2] is on record?
A: 0.2

Q: Which logD [25] does the source give for `NC(=O)c1ncn([C@@H]2O[C@H](CO)[C@@H](O)[C@H]2O)n1` here?
A: -1.85

Q: Which logP [26] does the source give for `CC(C)N(CCC(C(N)=O)(c1ccccc1)c1ccccn1)C(C)C` (configuration not stated) here?
A: 2.71

Q: For `O=Cc1ccc(O)cc1`, which logD [27] is on record?
A: 1.35

Q: Which logD [28] does the source give for `Nc1ncnc2c1ncn2[C@@H]1O[C@H](CO)C[C@H]1F` here?
A: -0.18

Q: With `NS(=O)(=O)c1cc2c(s1)C(O)CCS2` (configuration not stated) as the compound, how does the logD [2] read?
A: 0.48

Q: Which logP [29] does the source give for `Oc1ccccc1Cl` here?
A: 2.29

Q: Which logD [30] does the source give for `O=C(O)[C@@H]1C[C@@H](C2CCCCC2)CN1C(=O)CP(=O)(O)CCCCc1ccccc1` here?
A: 3.65

Q: Which logD [31] does the source give for `COc1ccc([C@@H]2Sc3ccccc3N(CCN(C)C)C(=O)[C@@H]2OC(C)=O)cc1` here?
A: 2.1

Q: For `O=C1Nc2ccc(Cl)cc2C(c2ccccc2Cl)=NC1O` (configuration not stated), which logP [32] is on record?
A: 2.37

Q: With `CC(CCc1ccccc1)NCC(O)c1ccc(O)c(C(N)=O)c1` (configuration not stated) as the compound, how does the logD [33] read?
A: 0.92

Q: With `CCOc1ccc(NC(C)=O)cc1` as the compound, how does the logD ([34]; pH 7.4) read?
A: 1.65

Q: With `CCNCC` as the compound, how does the logP [35] read?
A: 0.57

Q: Which logD ([34]; pH 4.5) does the source give for `CC(C)Cc1ccc(C(C)C(=O)O)cc1` (configuration not stated) here?
A: 3.28

Q: Which logD [36] does the source give for `CCCOC(=O)c1ccc(O)cc1` here?
A: 2.89

— the SangsterLogP compilation
